Source: patent US9458195B2, “Melanocortin receptor ligands” (Ipsen Pharma S.A.S., priority 2005, dated 2016)
pKi: −log10 of the molar value.

By UniProt entry, the sequences of proteins in these tests, tags left out.
UniProt P41968, whole entry: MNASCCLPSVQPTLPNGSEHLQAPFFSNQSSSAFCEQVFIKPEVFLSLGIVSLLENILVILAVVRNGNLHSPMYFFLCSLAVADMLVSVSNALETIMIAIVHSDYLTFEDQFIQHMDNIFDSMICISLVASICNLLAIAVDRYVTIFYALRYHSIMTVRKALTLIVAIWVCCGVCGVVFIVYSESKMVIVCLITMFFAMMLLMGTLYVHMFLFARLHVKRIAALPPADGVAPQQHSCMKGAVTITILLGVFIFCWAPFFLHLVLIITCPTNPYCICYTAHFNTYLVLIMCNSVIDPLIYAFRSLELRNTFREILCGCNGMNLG
UniProt P33032, whole entry: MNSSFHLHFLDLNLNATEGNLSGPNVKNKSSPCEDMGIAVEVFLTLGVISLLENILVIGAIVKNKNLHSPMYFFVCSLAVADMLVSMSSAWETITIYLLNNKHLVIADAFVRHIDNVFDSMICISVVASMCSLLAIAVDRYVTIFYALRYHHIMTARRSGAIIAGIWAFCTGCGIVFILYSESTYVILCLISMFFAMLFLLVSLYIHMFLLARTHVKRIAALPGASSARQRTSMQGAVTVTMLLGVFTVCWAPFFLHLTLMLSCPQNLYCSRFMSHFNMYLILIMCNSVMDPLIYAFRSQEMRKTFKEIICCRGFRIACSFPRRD
UniProt P32245, whole entry: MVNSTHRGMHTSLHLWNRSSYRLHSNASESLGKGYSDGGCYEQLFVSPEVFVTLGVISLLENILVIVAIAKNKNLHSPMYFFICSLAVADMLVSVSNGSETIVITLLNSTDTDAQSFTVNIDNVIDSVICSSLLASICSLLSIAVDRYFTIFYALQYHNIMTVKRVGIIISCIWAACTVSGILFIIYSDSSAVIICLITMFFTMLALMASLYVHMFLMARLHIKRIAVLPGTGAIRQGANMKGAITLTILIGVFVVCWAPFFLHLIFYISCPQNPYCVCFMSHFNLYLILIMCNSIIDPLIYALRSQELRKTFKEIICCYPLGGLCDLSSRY

Key:
hMC3-R = hMC3-R (Homo sapiens, UniProt P41968); assay: Radioligand binding assay, [125I]-NDP-α-MSH competition, hMC3-R; settings: read-out: Ki hMC3-R, CHO-K1 cell membranes
hMC5-R = hMC5-R (Homo sapiens, UniProt P33032); assay: Radioligand binding assay, [125I]-NDP-α-MSH competition, hMC5-R; settings: read-out: Ki hMC5-R, CHO-K1 cell membranes
hMC4-R = hMC4-R (Homo sapiens, UniProt P32245); assay: Radioligand binding assay, [125I]-NDP-α-MSH competition, hMC4-R; settings: read-out: Ki hMC4-R, CHO-K1 cell membranes

- pKi (hMC3-R): 8.00
- pKi (hMC5-R): 7.79
- pKi (hMC4-R): 8.98
SMILES: CCCC[C@H](NC(C)=O)C(=O)N[C@H]1CC(=O)NCCCC[C@@H](C(N)=O)NC(=O)CCCNC(=O)[C@H](Cc2c[nH]c3ccccc23)NC(=O)[C@H](CCCNC(=N)N)NC(=O)[C@@H](Cc2ccccc2)NC(=O)[C@H](Cc2cnc[nH]2)NC1=O
